Measured values from ChEMBL document CHEMBL2169795, “Macrocyclic peptoid-Peptide hybrids as inhibitors of class I histone deacetylases” (ACS Med Chem Lett, 2012).

How the values were obtained:
[1] = target: Histone deacetylase 3/Nuclear receptor corepressor 2 (HDAC3/NCoR2) (Homo sapiens, UniProt O15379); test: Inhibition of human recombinant HDAC3/NCoR2 using Ac-Lys(Ac)-7-amino-4-methylcoumarin as substrate after 30 mins by trypsin-coupled fluorogenic assay; format: protein-complex assay
Histone deacetylase 1 = Histone deacetylase 1 (Homo sapiens, UniProt Q13547); test: Inhibition of human recombinant HDAC1 using Ac-Lys(Ac)-7-amino-4-methylcoumarin as substrate after 30 mins by trypsin-coupled fluorogenic assay
Histone deacetylase = test: Inhibition of HDAC in human HeLa cell extracts by fluorimetric assay; format: protein assay

IC50 [1]: 30 nM
IC50 (Histone deacetylase 1): 30 nM
IC50 (Histone deacetylase): 40 nM
SMILES: CCC(=O)CCCCC[C@@H]1NC(=O)[C@H](C)N(C)C(=O)C[C@H](CC(C)C)NC(=O)[C@H](Cc2c[nH]c3ccccc23)NC1=O
